Results from US6890920B2, “Quaternary ammonium compounds” (Pharmacia & Upjohn Company, priority 1992, dated 2005).

The chains behind the UniProt entries cited, without tags or fusion partners. Where a name states a change or a piece, a line headed by the entry shows the natural chain unless it says otherwise.
UniProt P20309, whole entry: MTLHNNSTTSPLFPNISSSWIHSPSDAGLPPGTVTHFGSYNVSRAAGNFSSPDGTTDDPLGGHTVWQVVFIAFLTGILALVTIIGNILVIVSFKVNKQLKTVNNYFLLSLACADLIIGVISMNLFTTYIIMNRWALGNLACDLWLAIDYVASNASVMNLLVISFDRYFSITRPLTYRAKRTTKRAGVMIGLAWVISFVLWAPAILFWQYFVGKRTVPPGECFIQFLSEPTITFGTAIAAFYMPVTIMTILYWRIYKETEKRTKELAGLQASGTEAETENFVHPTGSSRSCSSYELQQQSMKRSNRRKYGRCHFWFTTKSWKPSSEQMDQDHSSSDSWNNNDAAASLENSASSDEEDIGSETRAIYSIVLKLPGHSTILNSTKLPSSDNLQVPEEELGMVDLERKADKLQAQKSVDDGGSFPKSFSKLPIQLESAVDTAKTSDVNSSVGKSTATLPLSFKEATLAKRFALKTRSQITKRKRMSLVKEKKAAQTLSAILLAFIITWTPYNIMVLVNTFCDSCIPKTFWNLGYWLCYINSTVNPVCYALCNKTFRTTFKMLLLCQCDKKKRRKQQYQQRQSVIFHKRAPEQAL
UniProt P08172, whole entry: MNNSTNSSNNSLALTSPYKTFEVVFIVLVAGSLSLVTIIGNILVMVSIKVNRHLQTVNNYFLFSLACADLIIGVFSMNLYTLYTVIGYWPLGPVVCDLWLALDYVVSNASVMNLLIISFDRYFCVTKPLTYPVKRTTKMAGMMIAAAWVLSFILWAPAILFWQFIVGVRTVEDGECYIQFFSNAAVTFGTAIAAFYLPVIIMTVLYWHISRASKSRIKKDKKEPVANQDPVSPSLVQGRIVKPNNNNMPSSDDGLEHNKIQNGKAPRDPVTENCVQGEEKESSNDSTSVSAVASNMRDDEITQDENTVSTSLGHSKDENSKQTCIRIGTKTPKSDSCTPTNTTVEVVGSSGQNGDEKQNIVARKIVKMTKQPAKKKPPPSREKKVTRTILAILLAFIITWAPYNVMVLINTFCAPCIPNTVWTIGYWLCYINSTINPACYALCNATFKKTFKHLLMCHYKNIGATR
UniProt P11229: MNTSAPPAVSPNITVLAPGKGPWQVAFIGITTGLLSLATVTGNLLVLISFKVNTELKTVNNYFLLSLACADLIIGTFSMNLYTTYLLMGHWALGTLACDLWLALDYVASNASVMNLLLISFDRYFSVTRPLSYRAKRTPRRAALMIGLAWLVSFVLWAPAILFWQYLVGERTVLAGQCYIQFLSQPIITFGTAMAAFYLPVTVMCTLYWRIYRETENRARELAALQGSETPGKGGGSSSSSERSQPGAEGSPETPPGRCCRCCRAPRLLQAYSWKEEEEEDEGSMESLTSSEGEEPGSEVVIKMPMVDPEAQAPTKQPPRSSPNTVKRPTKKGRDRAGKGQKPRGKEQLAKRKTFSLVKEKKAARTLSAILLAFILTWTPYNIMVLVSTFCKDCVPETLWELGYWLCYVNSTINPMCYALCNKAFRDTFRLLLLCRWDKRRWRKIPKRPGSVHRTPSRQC

Tests used:
muscarinic receptor M3 = muscarinic receptor M3 (Homo sapiens, UniProt P20309); test: Muscarinic receptor subtype M3 binding assay, radioligand displacement
muscarinic receptor M2 = target: T1, muscarinic receptor M2 (Homo sapiens, UniProt P08172); test: Muscarinic receptor subtype M2 binding assay, radioligand displacement
T1 construct: expressed in transfected cells

muscarinic receptor M1 = target: T2, muscarinic receptor M1 (Homo sapiens, UniProt P11229); test: Muscarinic receptor subtype M1 binding assay, radioligand displacement
T2 construct: expressed in transfected cells

## CC(C)[N+]1(C)[C@@H]2CC[C@H]1C[C@@H](OC(=O)C(CO)c1ccccc1)C2 (stereo partly drawn) [Ipratropium, 8-isopropylnoratropine methobromide, reference compound]
Muscarinic receptor M3
  Ki: 0.38 nM
Muscarinic receptor M2
  Ki: 0.17 nM
Muscarinic receptor M1
  Ki: 0.46 nM
